Source: PubChem BioAssay (National Center for Advancing Translational Sciences (NCATS))
RXFP1 antagonist = blocks the human relaxin receptor RXFP1 | 350,000 compounds, 0.59% hits | Q9HBX9 | activity change, negative = inhibition, % at 57.5 µM | HEK293-RXFP1, relaxin-stimulated cAMP HTRF, 30 min; active compounds read low;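 active means activity change of -60% or lower, but not beyond a set lower limit; inconclusive means change between -60% and -40%, or beyond the set limit; inactive means change above -40%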; further: on the % scale 0 is the no-effect control and ±100 the full control effect
RXFP1 agonist = activates the human relaxin receptor RXFP1; Q9HBX9; HEK293T-RXFP1 cAMP TR-FRET, 30 min; response scale: percent of porcine relaxin response, buffer zero; Potency, µM (highest dose often 57.5 µM), without a hit: at the highest dose activation, most hits filed as activators; 370,000 compounds, 0.3% hits; further: potency means the concentration at half of the fitted maximal effect; on the % scale 0 is the no-effect control and ±100 the full control effect; nearly all actives have a fitted effect of over 60% in size
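HEK293 cells stably expressing RXFP1, treated 30 min at 37C with compounds plus PDE4 inhibitor Ro 20174; cAMP measured by HTRF TR-FRET. Normalized to buffer and 29 nM porcine relaxin; EC50 by Hill fit.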
gsp antag = antagonizes gsp, the McCune-Albright syndrome mutation | gsp-mutant cells, cAMP HTRF, 30 min | Potency, µM (top dose mostly 76.9 µM), for the others: at the highest dose activity change, negative = inhibition, actives largely listed as inhibitors | 340,000 compounds, 0.4% hits | AID 624288; calls by dose curve; cell line not stated here;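 further: intracellular cAMP measured with PDE inhibitor Ro 20-1724 present during compound exposure; potency means the concentration at half of the fitted maximal effect; on the % scale 0 is the no-effect control and ±100 the full control effect; nearly all actives have a fitted effect of over 65% in size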
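HTRF cAMP measurement after 30 min RT detection following 30 min, 37C compound treatment alongside […] (added as 300 uM solution) in G418-selected cells seeded at 2000/well and grown 16–24 h.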
miR-21 FLuc = raises the signal of a miR-21 reporter | Potency, µM (doses to about 38.3 µM), for inactives: top-dose reporter change, positive = more light | HeLa miR-21 FLuc reporter, luciferase, 48 h | AID 2288 | 340,000 tested, under 10 active; active = well fitted rising curve with a large enough effect; inconclusive = small, poorly fitted or top-dose-only effect; inactive = no such curve, though single readings can be large or run the other way;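 also: % of control where 0% means no effect; miR-21 action dims this reporter so a rising signal means less miR-21 action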
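HeLa miR-21-FLuc reporter line, endogenous miR-21; 2000 cells/well in DMEM/10% FBS; compound titration up to ~40uM final, 48 h, 37 degree Celsius; luciferase detection reagent, 15 min lysis, CCD luminescence.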
Luc counter = Kinase-Glo luciferase inhibition (counter-screen); Kinase-Glo luciferase, ATP luminescence, 8 min; Potency, µM (top dose mostly 38.3 µM), inactives show top-dose activity change, negative = inhibition, hits mostly inhibitors; 200,000 compounds, 0.28% hits; AID 1379; further: potency means the concentration at half of the fitted maximal effect; on the % scale 0 is the no-effect control and ±100 the full control effect; nearly all actives have a fitted effect of over 60% in size
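Recombinant Kinase-Glo luciferase, 10 uM ATP (linear range), luciferin; imidazole pH 7.2 / KCl / MgCl2 / Tween / BSA buffer; 8 min RT; luminescence.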
gsp agonist = activates gsp, the McCune-Albright syndrome mutation; AID 624287; 340,000 compounds, 0.13% hits; Potency, µM (top dose mostly 76.9 µM), for inactives: at the top dose activation (cAMP increase), hits mostly activators; gsp mutant cells, cAMP HTRF, 30 min; active means well fitted activation curve with a large enough effect; inconclusive means small, poorly fitted or top-dose-only effect, or another doubt; inactive means no such curve, though single readings can be large or run the other way; cell line not stated here;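 further: phosphodiesterase inhibitor Ro 20-1724 added with compounds to block cAMP breakdown; potency means the concentration at half of the fitted maximal effect; nearly all actives have a fitted effect of over 60% in size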
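Cells stably selected in G418 were plated at 2000/well, grown 16-24 hr, then given compounds in DMSO with the PDE inhibitor […] (300 uM solution added) for 30 min at 37C; cAMP was read by HTRF.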
The depositor's hits bear a star; ? = inconclusive; · = not tested or not shown; [ ] = another dose, or the depositor's remark. An excerpt weighted towards active compounds, which were near 1% of everything screened. Unless noted, the call rests on the fitted dose curve; in most records, active means well fitted curve in the direction sought with a large enough effect; inconclusive means small, poorly fitted or top-dose-only effect, or another doubt; inactive means no such curve, though single readings can be large; an effect the other way counts as inactive or inconclusive.

SMILES | RXFP1 antagonist | RXFP1 agonist | gsp antag | miR-21 FLuc | Luc counter | gsp agonist
Cc1ccc2nc(SCC(=O)Nc3ccccc3N3CCOCC3)c(C#N)cc2c1 | 8 | 21% | -6% | 3% | -6% | 22µM*
Cc1cccc(-c2cccc(NC(=O)C3CCCN(C(=O)c4csc(C)n4)C3)c2)c1 (stereo not drawn) | 10 | 0% | 35µM* | 14% | · | ?
CCOc1ccc(C(=O)Nc2nnc(SCc3cc(=O)n4ccccc4n3)s2)cc1 | 0 | ? | · | -2% | · | ·
Cc1ccc(-n2ncc(C(=O)NCc3cccs3)c2C2CCN(C(=O)OC(C)(C)C)CC2)cc1 | -27 | 0% | · | 23% | · | ·
c1ccc2sc(-c3ccc4c(c3)OCO4)nc2c1 | -14 | 7% | -3% | 6% | 13µM* | 17%
O=C(Nc1cccc(-c2nc3ccccc3s2)c1)c1ccc2c(c1)OCO2 | -9 | 4% | -4% | -16% | -1% | -14%
COc1ccccc1CNC(=O)C1CCN(S(=O)(=O)c2c(C)noc2/C=C/c2c(C)cc(C)cc2C)CC1 | -7 | 5% | · | -3% | · | ·
COc1cc(C(=O)NC(=S)Nc2ccc(Cc3ccncc3)cc2)cc(OC)c1OC | -1 | -3% | 32µM* | -2% | · | -71%
COCCCNC(=O)c1oc2c(c1C)-c1nn(Cc3ccccc3Cl)cc1CC2 | -20 | 5% | · | 1% | · | ·
CCn1ncc(/C=C/C(=O)c2ccccc2)c1C | -2 | -1% | -12% | -62% | 10µM* | 2%[15.4 µM]
Cc1c(/C=C/C(=O)c2ccccc2)cnn1C | 6 | 0% | 2% | -58% | ? | 2%
N#CC(C#N)=C(Nc1ccc(F)cc1)SCc1cccc(F)c1 | 13 | 1% | 32µM* | ? | 9% | 1%
OC(CN1CCN(c2ccccn2)CC1)Cn1c2ccc(Cl)cc2c2cc(Cl)ccc21 (stereo not drawn) | 5 | -1% | 8% | 24% | -3% | 4%
OC(CN1CCCCC1)Cn1c2ccc(Cl)cc2c2cc(Cl)ccc21 (stereo not drawn) | -62* | -1% | 15% | ? | · | -17%[15.4 µM]
CNC(=O)C1CCC(Cn2c(=O)c3sccc3n(CC(=O)Nc3ccc(C)c(F)c3)c2=O)CC1 (stereo not drawn) | -13 | 0% | · | 10% | · | ·
Cc1cccc(N2CCN(C(=O)c3cc4ccc5cccnc5c4[nH]3)CC2C)c1 (stereo not drawn) | -61* | -3% | · | 0% | · | ·
COCC(=O)N1c2nc(-c3ccco3)nn2C2(CCCCC2)[C@@H]2CCCC[C@@H]21 | -9 | 0% | · | -3% | · | ·
O=C(CSc1ccc(Cl)cc1)N1CCC(c2nc3ccccc3s2)CC1 | -11 | -3% | 32µM* | 12% | -1% | -18%
CCc1c(C)c2cc3c(c(C)c2oc1=O)OCN(CCc1ccc(OC)c(OC)c1)C3 | 1 | 22% | · | 0% | · | ·
Cc1cc(/C=C2/NC(=O)N(Cc3ccccc3F)C2=O)c(C)n1C(C)C | -22 | 2% | 11µM* | -14% | -3% | -5%[15.4 µM]
Cc1ccc(C(C)OC(=O)C2(C)CCC(C(=O)O)C2(C)C)cc1 (stereo not drawn) | -7 | · | · | · | · | ·
O=C(NCc1ccc(Cl)cc1)c1ccc(Br)o1 | · | -4% | 1% | -12% | 1%[39.9 µM] | -3%
O=C(NCc1nnc2c(C(F)(F)F)cc(Cl)cn12)c1cccnc1 | 4 | 16µM* | 2% | 0% | · | ?
O=C(NCc1nnc2c(C(F)(F)F)cc(Cl)cn12)c1ccc(Br)o1 | 20 | ? | 14% | 0% | · | 13µM*
O=C(NCc1nnc2c(C(F)(F)F)cc(Cl)cn12)c1ccc2c(c1)OCO2 | 4 | ? | 15% | -7% | · | ?
Cc1cc(C)c(S(=O)(=O)Nc2ccc(C(=O)O)c(O)c2)cc1C | · | · | · | · | -4% | ·
Cc1ccc(NS(=O)(=O)c2ccc3c(c2)NC(=O)CO3)c(C)c1 | 5 | 1% | -4% | 2% | · | -4%
O=C1COc2ccc(S(=O)(=O)Nc3ccc(F)cc3)cc2N1 | 33 | 1% | -2% | 8% | · | 2.2µM*
COc1ccc(N2CCN(c3oc(/C=C/c4cc(OC)c(OC)c(OC)c4)nc3C#N)CC2)cc1 | -8 | 0% | · | -2% | · | ·
CCCc1nc(SCC(=O)N2CCC(Cc3ccccc3)CC2)c2c(=O)n(C)c(=O)n(C)c2n1 | 3 | 2% | 25µM* | -3% | 4% | ?
CCc1nc(SCC(=O)N2CCN(c3ccccc3)CC2)c2c(=O)n(C)c(=O)n(C)c2n1 | · | -1% | · | -2% | · | ·
COC(=O)c1ccc(NC(C)=O)cc1OC | -11 | · | · | · | · | ·
O=C(N/N=C/c1ccc(OC(=O)c2ccccc2Cl)cc1)c1cc(O)cc(O)c1 | -85* | 2% | -11% | -7% | · | -5%[15.4 µM]
CC(C)(C)c1ccc(-c2nnc(-c3ccccc3NC(=O)c3ccc(F)cc3F)o2)cc1 | · | 6% | · | -40% | · | ·
Cc1ccc(Sc2c(C)nn(-c3ccccc3)c2OC(=O)C(C)(C)C)cc1 | · | 0% | · | -2% | · | ·
Brc1ccc2c(c1)OCCOCCOc1cc(Br)ccc1OCCOCCOCCO2 | -38 | 0% | 50µM* | ? | 5% | -9%
COc1ccc(CC(=O)NCc2ccc3c(c2)CCN3C(C)=O)cc1 | 0 | 4% | · | 2% | · | ·
CSc1cccc(NC(=O)c2cnn(-c3ccc(F)cc3)c2-n2cccc2)c1 | · | -1% | · | ? | · | ·
CC(=O)c1ccc(NC(=O)c2cnn(-c3cccc(F)c3)c2-n2cccc2)cc1 | -68* | 1% | · | 12% | · | ·
CCOc1ccccc1CNCc1cccn1-c1nnc(N2CCN(c3ccccc3)CC2)s1 | -18 | -1% | · | ? | · | ·
O=C(O)c1cc(-c2ccc(N3CCOCC3)cc2)nn1-c1ccc(F)cc1F | -2 | 2% | -10% | -16% | · | 22%
Brc1cc(Br)c2nc(-c3ccc(N4CCOCC4)cc3)ccc2c1 | 7 | ? | 11µM* | -68% | 6% | ?
O=C1c2ccccc2NC(c2cnc3ccccc3n2)N1O (stereo not drawn) | -7 | 15% | -11% | -43% | -17% | 22µM*
Cc1nn(C)c(C)c1C1Nc2ccccc2C(=O)N1O (stereo not drawn) | -7 | 0% | 4% | -26% | 2% | 11%
Cc1c(OCC(=O)NCC(O)c2ccccc2)ccc2c(-c3ccccc3)cc(=O)oc12 (stereo not drawn) | · | 0% | 28µM* | -6% | · | ·
CC(C)(C)OC(=O)N1CCC(c2c(C(=O)NCCN3CCOCC3)cnn2-c2ccc(F)cc2)CC1 | -11 | -2% | · | 0% | · | ·
CCOc1ccc(NC(=O)C2CCN(C(=O)N3CC(C)Oc4ccc(Cl)cc43)CC2)cc1 (stereo not drawn) | 16 | -1% | · | -18% | · | ·

Entries of single compounds from above.
COc1ccc(CC(=O)NCc2ccc3c(c2)CCN3C(C)=O)cc1 across the screens: RXFP1 antagonist = 0; RXFP1 agonist = 4%; gsp antag = ·; miR-21 FLuc = 2%; Luc counter = ·; gsp agonist = ·
Brc1cc(Br)c2nc(-c3ccc(N4CCOCC4)cc3)ccc2c1 across the screens: RXFP1 antagonist = 7; RXFP1 agonist = ?; gsp antag = 11µM*; miR-21 FLuc = -68%; Luc counter = 6%; gsp agonist = ?
CSc1cccc(NC(=O)c2cnn(-c3ccc(F)cc3)c2-n2cccc2)c1 across the screens: RXFP1 antagonist = ·; RXFP1 agonist = -1%; gsp antag = ·; miR-21 FLuc = ?; Luc counter = ·; gsp agonist = ·
